Data on 12 compounds can be found in ChEMBL document CHEMBL3352540, “New efficient imidazolium aldoxime reactivators for nerve agent-inhibited acetylcholinesterase” (2014).

By UniProt entry, the sequences of proteins in these tests, tags left out. Where a name states a change or a piece, a line headed by the entry shows the natural chain unless it says otherwise.
UniProt P22303: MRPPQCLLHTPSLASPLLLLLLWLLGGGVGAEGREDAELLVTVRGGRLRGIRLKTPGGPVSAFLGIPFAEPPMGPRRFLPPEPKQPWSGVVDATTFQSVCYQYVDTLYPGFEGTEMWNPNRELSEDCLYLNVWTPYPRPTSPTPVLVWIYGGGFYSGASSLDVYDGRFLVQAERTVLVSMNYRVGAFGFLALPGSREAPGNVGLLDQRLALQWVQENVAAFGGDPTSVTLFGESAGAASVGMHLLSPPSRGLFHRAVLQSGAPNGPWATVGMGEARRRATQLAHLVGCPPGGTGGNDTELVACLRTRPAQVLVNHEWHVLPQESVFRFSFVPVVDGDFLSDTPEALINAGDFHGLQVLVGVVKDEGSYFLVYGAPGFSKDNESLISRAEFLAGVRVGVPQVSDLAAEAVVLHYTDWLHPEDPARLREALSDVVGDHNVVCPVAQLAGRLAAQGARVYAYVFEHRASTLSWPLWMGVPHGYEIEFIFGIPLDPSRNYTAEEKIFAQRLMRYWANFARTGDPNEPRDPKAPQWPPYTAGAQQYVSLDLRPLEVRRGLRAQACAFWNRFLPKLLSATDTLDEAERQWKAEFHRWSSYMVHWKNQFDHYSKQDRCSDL

In test [1] the target is Acetylcholinesterase (Homo sapiens) (UniProt P22303). Kind of test: Reactivation of VX-inhibited human acetylcholinesterase assessed as reactivation rate constant.
Test [2] has the same target. The test can be described thus: Reactivation of sarin-inhibited human acetylcholinesterase assessed as reactivation rate constant.
For test [3] the target is unchanged. Kind of test: Reactivation of tabun-inhibited human acetylcholinesterase assessed as reactivation rate constant.
The target is the same in test [4]. The test can be described thus: Reactivation of VX-inhibited human acetylcholinesterase assessed as second order reactivation rate constant.
The target is the same in test [5]. Kind of test: Reactivation of sarin-inhibited human acetylcholinesterase assessed as second order reactivation rate constant.
For test [6] the target is unchanged. The test can be described thus: Reactivation of tabun-inhibited human acetylcholinesterase assessed as second order reactivation rate constant.
Test [7] shares this target. Kind of test: Reactivation of VX-inhibited human acetylcholinesterase at 1 mM in pH 7.4 phosphate buffer at 37 degC by Ellman's method. Details: scale not given: the % may be the effect or the level left. (In general: DTNB colorimetry detects thiols as they appear.)
Test [8] has the same target. The test can be described thus: Reactivation of VX-inhibited human acetylcholinesterase at 0.1 mM in pH 7.4 phosphate buffer at 37 degC by Ellman's method. Details: scale not given: the % may be the effect or the level left.
For test [9] the target is unchanged. Kind of test: Reactivation of sarin-inhibited human acetylcholinesterase at 1 mM in pH 7.4 phosphate buffer at 37 degC by Ellman's method. Details: scale not given: the % may be the effect or the level left.
Test [10] shares this target. Kind of test: Reactivation of tabun-inhibited human acetylcholinesterase at 1 mM in pH 7.4 phosphate buffer at 37 degC by Ellman's method. Set-up: scale not given: the % may be the effect or the level left.
For test [11] the target is unchanged. The test can be described thus: Reactivation of sarin-inhibited human acetylcholinesterase at 0.1 mM in pH 7.4 phosphate buffer at 37 degC by Ellman's method. Set-up: scale not given: the % may be the effect or the level left.
Test [12] shares this target. Kind of test: Reactivation of tabun-inhibited human acetylcholinesterase at 0.1 mM in pH 7.4 phosphate buffer at 37 degC by Ellman's method. Set-up: scale not given: the % may be the effect or the level left.
For test [13] the target is unchanged. The test can be described thus: Inhibition of human acetylcholinesterase at 1 mM by Ellman's method.
Test [14] shares this target. The test can be described thus: Inhibition of human acetylcholinesterase assessed as remaining enzyme activity at 0.1 mM by Ellman's method.
Test [15] has the same target. The test can be described thus: Inhibition of human acetylcholinesterase assessed as remaining enzyme activity at 1 mM measured after erythrocyte wash out by Ellman's method.

`COc1cc2c(cc1OC)C(c1ccccc1)N(CCCCCCn1ccnc1/C=N/O)CC2` (configuration not stated): the Kr in [1] turned out to be 0.21 min⁻¹; in test [2] it was 0.033 min⁻¹; in [3], 0.012 min⁻¹; in test [4], 140 M⁻¹ s⁻¹; in test [5], 13.5 M⁻¹ s⁻¹; in test [6] it was 14.3 M⁻¹ s⁻¹.
With `O/N=C/c1ncc[nH]1`, the Activity in test [7] was 8%; in test [8] it was 7%; in [9] it was 5%; in test [10], 10%; in test [11], 3%; in [12], 3%.
Usually inhibition stands for the share of the control response that was lost under treatment. As for `COc1cc2c(cc1OC)CN(CCCCCn1ccnc1/C=N/O)CC2`, the inhibition in [13] was below 40%. Further, the Activity in test [14] is above 85%; in [7], 89%; in [8], 46%; in test [9], 14%; in [10] it was 7%; in test [11], 2%. In addition, the Activity in test [12] stood at 5%.
As for `COc1cc2c(cc1OC)C(c1ccccc1)N(CCCCCc1ccc(O)c(/C=N/O)n1)CC2` (configuration not stated), the inhibition in test [13] was found to be 51%. Besides, the Kr in test [1] amounted to 0.22 min⁻¹; in test [2], 0.063 min⁻¹; in [3] it was 0.027 min⁻¹; in test [4] it was 167 M⁻¹ s⁻¹; in [5], 12 M⁻¹ s⁻¹; in test [6] it was 25.7 M⁻¹ s⁻¹. In addition, the Activity in [14] was above 85%; in test [7], 84%; in test [8], 68%; in test [9], 68%; in [10] it was 68%; in test [11], 64%. Moreover, the results for the Activity in test [12] and in test [15] were 54% and 73%, respectively.
Regarding `COc1cc2c(cc1OC)CN(CCCn1ccnc1/C=N/O)CC2`, the inhibition in test [13] is below 40%. For the same compound, the Activity is above 85% in test [14]; 31% in test [7]; -1% in test [8]; -2% in test [9]; 2% in [10]; -2% in test [11]. Further, the Activity in [12] is -1%.
In the case of `COc1cc2c(cc1OC)CN(CCCCCCn1ccnc1/C=N/O)CC2`, the inhibition in test [13] was below 40%. For the same compound, the Activity in test [14] is above 85%; in test [7], 89%; in test [8] it was 54%; in test [9], 34%; in test [10] it was 17%; in [11] it was 6%. Besides, the Activity in test [12] worked out at 32%.
`COc1cc2c(cc1OC)CN(CCCCn1ccnc1/C=N/O)CC2` had an inhibition in [13] below 40%. Moreover, the Activity is above 85% in test [14]; 68% in [7]; 28% in test [8]; 8% in test [9]; 1% in test [10]; 0% in [11]. Moreover, the Activity in [12] is 1%.
For the compound `O/N=C/c1cc[n+](CCC[n+]2ccc(/C=N/O)cc2)cc1`, the Kr in test [3] was 0.056 min⁻¹; in test [6], 11.7 M⁻¹ s⁻¹.
`COc1cc2c(cc1OC)C(c1ccccc1)N(CCCn1ccnc1/C=N/O)CC2` (configuration not stated) registered an inhibition in test [13] below 40%. The Activity in test [14] is above 85%; in test [7], 13%; in test [8], 3%; in test [9] it was 2%; in test [10], 1%; in test [11] it was 0%. In addition, in test [12], the Activity was 0%.
Compound `COc1cc2c(cc1OC)C(c1ccccc1)N(CCCCn1ccnc1/C=N/O)CC2` (configuration not stated) displayed an inhibition in test [13] below 40%. The Activity in [14] was above 85%; in [7] it was 47%; in test [8], 6%; in test [9] it was 27%; in test [10], 5%; in [11] it was 4%. For the same compound, the Activity in test [12] was determined as 3%.
As to `COc1cc2c(cc1OC)C(c1ccccc1)N(CCCCCn1ccnc1/C=N/O)CC2` (configuration not stated), in test [13], the inhibition was 36%. Moreover, the Kr stood at 0.14 min⁻¹ in test [1]; 0.04 min⁻¹ in test [2]; 0.009 min⁻¹ in test [3]; 95.8 M⁻¹ s⁻¹ in [4]; 4.67 M⁻¹ s⁻¹ in test [5]; 6 M⁻¹ s⁻¹ in [6]. The Activity in [14] is above 85%; in [7], 92%; in [8], 67%; in [9], 69%; in test [10] it was 47%; in test [11] it was 21%. For the same compound, the Activity was 33% in test [12] and 95% in test [15].
Turning to `O/N=C/c1cc[n+](C[n+]2ccc(/C=N/O)cc2)cc1`, the Activity amounted to 71% in [7]; 23% in test [8]; 49% in test [9]; 21% in test [10]; 5% in test [12].
